IC50 data for 1 molecule are collected here from paper PMC9097471, “Development of Selective Phosphatidylinositol 5-Phosphate 4-Kinase γ Inhibitors with a Non-ATP-competitive, Allosteric Binding Mode” (Journal of Medicinal Chemistry, 2022).

As a reminder, the IC50 is the concentration at which inhibition is half-maximal. Lower therefore signals inhibition by little substance.

One test concerns the target T1, PI5P4Kα-WT (Homo sapiens, UniProt P48426).
T1 sequence (P48426 1-406): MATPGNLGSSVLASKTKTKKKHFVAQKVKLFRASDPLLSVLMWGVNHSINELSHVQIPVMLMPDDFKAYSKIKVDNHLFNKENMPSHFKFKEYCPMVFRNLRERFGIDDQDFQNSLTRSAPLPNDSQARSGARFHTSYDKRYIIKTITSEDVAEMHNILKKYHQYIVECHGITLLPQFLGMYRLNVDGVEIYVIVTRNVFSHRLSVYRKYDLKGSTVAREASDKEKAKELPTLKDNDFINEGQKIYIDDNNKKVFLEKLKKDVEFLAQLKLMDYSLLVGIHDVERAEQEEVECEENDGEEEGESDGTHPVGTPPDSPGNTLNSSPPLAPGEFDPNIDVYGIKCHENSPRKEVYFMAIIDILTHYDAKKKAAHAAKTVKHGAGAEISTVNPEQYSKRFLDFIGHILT
The test is described as follows: ADP-Glo inhibition assay. (In general: In ADP-Glo the light output rises with the ADP produced.)

For the next test, the target named is T2, PI5P4Kβ-WT (Homo sapiens, UniProt P78356).
T2 sequence (P78356 1-416): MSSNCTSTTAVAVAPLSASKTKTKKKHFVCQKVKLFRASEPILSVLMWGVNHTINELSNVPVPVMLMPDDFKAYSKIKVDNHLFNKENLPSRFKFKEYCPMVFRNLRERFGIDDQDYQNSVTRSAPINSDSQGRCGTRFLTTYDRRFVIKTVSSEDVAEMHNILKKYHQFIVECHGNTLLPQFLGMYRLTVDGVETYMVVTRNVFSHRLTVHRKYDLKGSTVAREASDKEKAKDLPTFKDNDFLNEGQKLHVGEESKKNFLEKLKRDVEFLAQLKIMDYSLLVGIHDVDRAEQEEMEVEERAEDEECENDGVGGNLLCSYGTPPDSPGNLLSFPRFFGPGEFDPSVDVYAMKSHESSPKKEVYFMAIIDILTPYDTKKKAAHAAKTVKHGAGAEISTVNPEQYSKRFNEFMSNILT
The test is described as follows: ADP-Glo inhibition assay.

Turning to `CN(C)C/C=C/C(=O)Nc1ccc(C(=O)Nc2cccc(Nc3cc(-c4c[nH]c5ccccc45)ncn3)c2)cc1` [Compound 3, THZ-P1-2, reference compound], the concentration for half-maximal inhibition (IC50) on PI5P4Kα-WT was 130 nM; on PI5P4Kβ-WT it was 1000 nM.
